From article PMC9481563, “Structural insights into the pSer/pThr dependent regulation of the SHP2 tyrosine phosphatase in insulin and CD28 signaling” (Nature Communications, 2022)

biological target: inactive SHP2 catalytic domain Loopless (R362G+K364S) (Homo sapiens, UniProt Q06124, C459S/K364S/R362G); assay: Fluorescence polarization titrations, SHP2 Loopless; type: binding; settings: competitive FP titration vs CF-ppIRS1 100 nM, protein fixed; n = 3 technical replicates

Point of comparison: CC[C@H](C)[C@H](NC(=O)[C@H](CC(N)=O)NC(=O)[C@@H](NC(=O)[C@H](Cc1ccc(OP(=O)(O)O)cc1)NC(=O)[C@H](CCC(=O)O)NC(=O)CNC(=O)[C@@H]1CCCN1C(=O)[C@H](COP(=O)(O)O)NC(=O)[C@H](CCCCN)NC(=O)[C@@H]1CCCN1C(=O)[C@@H](N)CCC(=O)O)C(C)C)C(=O)N[C@@H](CCC(=O)O)C(=O)N[C@@H](Cc1ccccc1)C(=O)O [ppSRev-IRS1], Kd 5.71 ± 0.69 µM. Against it:
- CSCC[C@H](NC(=O)[C@@H]1CCCN1C(=O)[C@H](CCSC)NC(=O)[C@H](Cc1ccc(OP(=O)(O)O)cc1)NC(=O)[C@H](CC(=O)O)NC(=O)CNC(=O)[C@H](CO)NC(=O)CNC(=O)[C@H](CCCCN)NC(=O)[C@H](CCCNC(=N)N)NC(=O)CN)C(=O)N[C@@H](COP(=O)(O)O)C(=O)N1CCC[C@H]1C(=O)N[C@@H](CCCCN)C(=O)N[C@@H](CO)C(=O)O [ppIRS1] — 2.8-fold higher, 15.8 ± 2.33 µM
- CSCC[C@H](NC(=O)[C@H](Cc1ccc(OP(=O)(O)O)cc1)NC(=O)[C@H](CC(=O)O)NC(=O)[C@H](CO)NC(=O)[C@H](Cc1c[nH]cn1)NC(=O)[C@H](CC(C)C)NC(=O)[C@H](CC(C)C)NC(=O)[C@H](CCCNC(=N)N)NC(=O)[C@H](CO)NC(=O)[C@@H](N)CCCNC(=N)N)C(=O)N[C@@H](CC(N)=O)C(=O)N[C@@H](CCSC)C(=O)N[C@H](C(=O)N1CCC[C@H]1C(=O)N[C@@H](CCCNC(=N)N)C(=O)N[C@@H](CCCNC(=N)N)C(=O)O)[C@@H](C)OP(=O)(O)O [ppCD28] — 4.5-fold higher, 25.8 ± 1.94 µM
- CC[C@H](C)[C@H](NC(=O)[C@H](CC(N)=O)NC(=O)[C@@H](NC(=O)[C@H](Cc1ccc(OP(=O)(O)O)cc1)NC(=O)[C@H](CCC(=O)O)NC(=O)CNC(=O)[C@@H]1CCCN1C(=O)[C@H](CO)NC(=O)[C@H](CCCCN)NC(=O)[C@@H]1CCCN1C(=O)[C@@H](N)CCC(=O)O)C(C)C)C(=O)N[C@@H](CCC(=O)O)C(=O)N[C@@H](Cc1ccccc1)C(=O)O [p0SRev-IRS1] — 5.2-fold higher, 29.8 ± 3.56 µM
- CSCC[C@H](NC(=O)[C@H](Cc1ccc(OP(=O)(O)O)cc1)NC(=O)[C@H](CC(=O)O)NC(=O)[C@H](CO)NC(=O)[C@H](Cc1c[nH]cn1)NC(=O)[C@H](CC(C)C)NC(=O)[C@H](CC(C)C)NC(=O)[C@H](CCCNC(=N)N)NC(=O)[C@H](CO)NC(=O)[C@@H](N)CCCNC(=N)N)C(=O)N[C@@H](CC(N)=O)C(=O)N[C@@H](CCSC)C(=O)N[C@H](C(=O)N1CCC[C@H]1C(=O)N[C@@H](CCCNC(=N)N)C(=O)N[C@@H](CCCNC(=N)N)C(=O)O)[C@@H](C)O [p0CD28] — 17-fold higher, 94.3 ± 4.32 µM
- CSCC[C@H](NC(=O)[C@@H]1CCCN1C(=O)[C@H](CCSC)NC(=O)[C@H](Cc1ccc(OP(=O)(O)O)cc1)NC(=O)[C@H](CC(=O)O)NC(=O)CNC(=O)[C@H](CO)NC(=O)CNC(=O)[C@H](CCCCN)NC(=O)[C@H](CCCNC(=N)N)NC(=O)CN)C(=O)N[C@@H](CO)C(=O)N1CCC[C@H]1C(=O)N[C@@H](CCCCN)C(=O)N[C@@H](CO)C(=O)O [p0IRS1] — 34-fold higher, 195 ± 21 µM

system: Wild-type SHP2; assay: Additional DIFMUP kinetics (BioTek protocol), wild-type SHP2; settings: different protocol (1 min read intervals, slope fitting to 3 initial points), BioTek plate reader; n = 3

Cc1cc(=O)oc2c(F)c(OP(=O)(O)O)c(F)cc12 [DIFMUP] was tested, and the Vmax was 285.4 ± 23.1 µM/min.
